Measured values as given in US11319306B2, “Compositions and methods for treating neurodegenerative diseases” (Azevan Pharmaceuticals, Inc., priority 2014, dated 2022).

By UniProt entry, the sequences of proteins in these tests, tags left out.
UniProt P37288, whole entry: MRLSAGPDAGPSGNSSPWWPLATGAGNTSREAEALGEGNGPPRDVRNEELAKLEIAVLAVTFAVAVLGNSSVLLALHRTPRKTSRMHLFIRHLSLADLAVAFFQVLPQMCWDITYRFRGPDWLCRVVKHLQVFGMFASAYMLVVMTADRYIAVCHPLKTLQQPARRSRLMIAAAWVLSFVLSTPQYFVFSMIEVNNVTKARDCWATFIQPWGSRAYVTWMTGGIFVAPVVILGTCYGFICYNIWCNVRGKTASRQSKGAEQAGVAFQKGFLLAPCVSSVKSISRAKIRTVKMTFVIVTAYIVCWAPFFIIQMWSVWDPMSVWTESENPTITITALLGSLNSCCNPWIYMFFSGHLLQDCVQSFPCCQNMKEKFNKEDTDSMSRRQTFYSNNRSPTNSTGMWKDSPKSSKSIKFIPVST

Molecular target: human V1a receptor (Homo sapiens, UniProt P37288)
Assay: Human vasopressin V1a receptor binding assay (3H-AVP competition, hV1a CHO cells)

IC50 (read-out: V1a Binding Affinity IC50, CHO cells expressing human V1a): 11 nM
Ki (read-out: V1a Ki, CHO cells expressing human V1a): 6.71 nM
Structure (SMILES): O=C(NCc1cccc(C(F)(F)F)c1)[C@H](CCC(=O)N1CCC(N2CCCC2)CC1)N1C(=O)[C@@H](N2C(=O)OC[C@@H]2c2ccccc2)[C@H]1/C(Cl)=C/c1ccccc1
